This is a selection; strong and weak results do not stand in their true shares. Active and inactive are the calls of the source. No stated cut-off is given here; in the data, active means inhibition above about 13%; inactive means the rest.
Molecular target: Methyl-CpG-binding domain protein 2 (Homo sapiens) (UniProt Q9UBB5)
Assay: inhibitors of MBD2 binding to methylated DNA, primary screen, biochemical, TR-FRET, DNA-binding domain, human (AID 686964)
Details: MBD2 binding to methylated oligonucleotide, at 4.4 µM, stronger effect = higher value

Protein sequences, listed by entry. Tags and fused reporters are not part of them.
UniProt Q9UBB5, whole entry, looked up: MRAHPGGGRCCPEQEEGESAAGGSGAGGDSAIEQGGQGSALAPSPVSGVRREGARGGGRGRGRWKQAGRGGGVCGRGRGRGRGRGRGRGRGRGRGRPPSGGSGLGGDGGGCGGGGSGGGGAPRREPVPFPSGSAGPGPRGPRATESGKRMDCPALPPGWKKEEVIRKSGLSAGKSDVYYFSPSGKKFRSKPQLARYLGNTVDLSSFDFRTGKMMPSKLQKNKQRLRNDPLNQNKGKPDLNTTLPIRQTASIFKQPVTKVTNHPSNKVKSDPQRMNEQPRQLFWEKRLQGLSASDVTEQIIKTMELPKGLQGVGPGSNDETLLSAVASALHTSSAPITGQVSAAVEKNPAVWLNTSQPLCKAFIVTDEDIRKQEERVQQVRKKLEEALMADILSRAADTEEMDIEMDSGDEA

Row | SMILES | inhibition
1 | Cc1cc(=O)[nH]c(N[N+](=O)[O-])n1 | inactive: -4.39%
2 | O=C(OC1CN2CCC1CC2)C12CC3CC(CC(C3)C1)C2 (centres undefined) | inactive: 0.9%
3 | O=P1(N(CCCl)CCCl)OCCCN1CCCl (centres undefined) | inactive: 1.21%
4 | O=P1(N(CCCl)CCCl)Nc2ccccc2N1 | inactive: 1.39%
5 | COc1cc(I)ccc1[As](=O)(O)O | inactive: -0.69%
6 | COc1ccc2nc(NP(=O)(c3ccccc3)c3ccccc3)sc2c1 | inactive: -1.12%
7 | O=[N+]([O-])c1cc(Oc2ccc([N+](=O)[O-])cc2C(F)(F)F)cc([N+](=O)[O-])c1 | inactive: 2.79%
8 | COc1ccc(N/C(=N/P(=O)(N2CCOCC2)N2CCOCC2)N2CCOCC2)cc1 | inactive: -1.63%
9 | COC(=O)C1(C)COP(=O)(N2CCCC2)OC1 (centres undefined) | inactive: -6.44%
10 | COP1(=S)c2c(C)nn(CCC#N)c2N=C(c2ccc(F)cc2)N1C (centres undefined) | inactive: -2.64%
11 | O=C(O)C(=O)c1ccc(N(CCCl)CCCl)cc1 | inactive: -1.04%
12 | O=C(Nc1ccncc1[N+](=O)[O-])c1ccc([N+](=O)[O-])cc1[N+](=O)[O-] | inactive: 2.05%
13 | O=C(COc1ccccc1)OC1CN2CCC1CC2 (centres undefined) | inactive: 5.24%
14 | O=C(OC1CN2CCC1CC2)c1cccc([N+](=O)[O-])c1 (centres undefined) | inactive: 0.74%
15 | CCOC(=O)c1ccc(NC(=O)C(C)(CCl)SC)cc1 (centres undefined) | inactive: -1.97%
16 | CCC(C)N(CC(C)C)C(=S)SC(NC(C)=O)C(Cl)(Cl)Cl (centres undefined) | inactive: 5.81%
17 | O=C(O)C(O)c1ccc(N(CCCl)CCCl)cc1 (centres undefined) | inactive: -2.82%
18 | CCOC(=O)Nc1ccc([As](=O)(O)O)c(O)c1 | inactive: 3.99%
19 | CC1CCNP(=O)(N(CCCl)CCCl)O1 (centres undefined) | inactive: -0.94%
20 | COP(=O)(OC)N1CC1c1ccccc1 (centres undefined) | inactive: -4.65%
21 | Cc1cc(SC(NC(=O)c2ccccc2)C(Cl)(Cl)Cl)nc(C(C)C)n1 (centres undefined) | inactive: -5.25%
22 | CCCCOc1ccc(C(=O)NCC2(N3CCCCC3)CCCCC2)cc1OC | inactive: -0.28%
23 | CCOC(=O)Nc1cccc([As](=O)(O)O)c1 | inactive: 2.94%
24 | Cc1cc(SC(NC=O)C(Cl)(Cl)Cl)ncn1 (centres undefined) | inactive: 1.09%
25 | O=P(Nc1ccccn1)(c1cccc2ccccc12)c1cccc2ccccc12 | inactive: -0.98%

Row | SMILES | inhibition
26 | O=[N+]([O-])c1ccc(Nc2ccc(Oc3ccc([N+](=O)[O-])cc3[N+](=O)[O-])cc2)c([N+](=O)[O-])c1 | inactive: 1.69%
27 | Cc1ccc(C(=O)OC2CN3CCC2CC3)cc1 (centres undefined) | inactive: 6.23%
28 | CC1CCC(C(C)C)C(OP(=O)(Nc2ccccn2)c2ccccc2)C1 (centres undefined) | inactive: -2.1%
29 | Cc1nn(-c2ccccc2)c2c1P(=O)(N1CCOCC1)N(C)C(c1ccccc1)=N2 (centres undefined) | inactive: -0.61%
30 | CN(C)C1(CNC(=O)c2ccc(S(C)(=O)=O)cc2)CCCCC1 | inactive: -1.08%
31 | CCCC1OP(=O)(Nc2ccccc2)OCC1CC (centres undefined) | inactive: 3.27%
32 | O=C(/C=C/c1ccccc1)OC1CN2CCC1CC2 (centres undefined) | inactive: 2.63%
33 | Cc1ccc(S(=O)(=O)N(CCCN)CCCc2c(C)nc(N)[nH]c2=O)cc1 | inactive: -8.69%
34 | O=P1(Nc2ncccn2)COc2ccccc2OC1 | inactive: -2.48%
35 | Nc1cccc([As](=O)(O)c2ccccc2)c1 | inactive: -4.41%
36 | NS(=O)(=O)c1cccc(NC(=O)COC(=O)C(O)(c2ccccc2)c2ccccc2)c1 | inactive: 1.32%
37 | O=P1(Nc2ccc(Br)cn2)COc2ccccc2OC1 | inactive: 4.02%
38 | O=[As](O)(c1cccs1)c1cccs1 | inactive: 1.91%
39 | Cc1ccc(OCC(=O)OC2CN3CCC2CC3)cc1 (centres undefined) | inactive: 7.13%
40 | CCOP(=O)(NC(=NC(C)c1ccccc1)NC(C)c1ccccc1)OCC (centres undefined) | inactive: -2.53%
41 | CCC1=CC2Cc3nc4ccc(Cl)cc4c(N)c3C(C1)C2 (centres undefined) | inactive: -2.19%
42 | O=P1(Nc2ccccn2)COc2ccccc2OC1 | inactive: 0.31%
43 | CN(CCCl)Cc1cc(Cl)c(NC2=NCCN2)c(Cl)c1 | inactive: 3.21%
44 | CCOP(=O)(Nc1ccc(C)cn1)OCC | inactive: 1.57%
45 | CC(C)(C)C(=O)NC(Sc1ncccn1)C(Cl)(Cl)Cl (centres undefined) | inactive: 5.06%
46 | Clc1n[nH]nc1-c1nn[nH][15n]1 | inactive: -0.33%
47 | O=P1(N(CCCl)CCCl)NCCC(C(F)(F)F)O1 (centres undefined) | inactive: 2.16%
48 | COc1ccccc1CNC(=O)COC(=O)C(O)(c1ccccc1)c1ccccc1 | inactive: 1.98%
49 | CN(C(=O)Cc1ccc(Cl)c(Cl)c1)C1CCCC[C@@H]1N1CCCC1 (some centres undefined) | inactive: -0.14%
50 | CN(C(=O)Cc1ccc(Cl)c(Cl)c1)[C@@H]1CCCC[C@H]1N1CCCC1 | inactive: 1.28%

Row | SMILES | inhibition
51 | CC(C)/C=N\N=C(\N)N[N+](=O)[O-] | inactive: -1.6%
52 | CC1(CBr)Cn2c(nc3ccccc3c2=O)S1 (centres undefined) | inactive: 0.97%
53 | O=C(OC1CN2CCC1CC2)c1ccc(Cl)cc1 (centres undefined) | inactive: -2.3%
54 | CS(=O)(=O)c1ccc(Cl)c(NC(=O)COC(=O)C(O)(c2ccccc2)c2ccccc2)c1 | inactive: -1.6%
55 | COc1cc(C(=O)NCC2(N3CCOCC3)CCCCC2)cc(Cl)c1OC(C)C | inactive: 8.41%
56 | O=[As](O)(O)c1cccnc1 | inactive: -2.24%
57 | O=[As](O)(c1cccc(O)c1)c1cccc(O)c1 | inactive: -4.35%
58 | Cc1cccc(OCC(=O)OC2CN3CCC2CC3)c1 (centres undefined) | inactive: 1.12%
59 | Nc1cccc2c([As](=O)(O)O)cccc12 | inactive: -4.23%
60 | Cc1ccc(NCCc2c([N+](=O)[O-])cc([N+](=O)[O-])cc2[N+](=O)[O-])cc1 | inactive: -18.8%
61 | CCCOP(=S)(Nc1nc(N)cc(=O)[nH]1)OCCC | inactive: 0.36%
62 | CCOP(=O)(Nc1cccc2ccccc12)OCC | inactive: 0%
63 | COc1cc(C2NCCC3(OCCO3)C2(C)C)cc(OC)c1OC (centres undefined) | inactive: 0.05%
64 | O=P(Nc1nccs1)(Oc1ccccc1)Oc1ccccc1 | inactive: 3.97%
65 | CCOP1(=S)c2c(C)nn(CCC#N)c2N=C(c2ccccc2F)N1C (centres undefined) | inactive: -7.82%
66 | O=C(O)COc1ccc([As](=O)(O)O)cc1[N+](=O)[O-] | inactive: -0.62%
67 | Nc1ccccc1[As](=O)(O)c1ccccc1 | inactive: 0.75%
68 | NC(=O)Nc1ccc([As](=O)(O)O)cc1 | inactive: -7%
69 | CN(C(=O)Cc1ccccc1)[C@@H]1CC[C@]2(CCCO2)C[C@H]1N1CCCC1 | inactive: 3.88%
70 | CCOP1(=S)c2c(C)nn(CCC#N)c2N=C(c2ccc(F)cc2)N1C (centres undefined) | inactive: -3.94%
71 | N#CCCN(C(=O)COC(=O)C(O)(c1ccccc1)c1ccccc1)c1ccc(F)cc1 | inactive: 2.07%
72 | CN(C(=O)Cc1ccc(Cl)c(Cl)c1)[C@H]1CC[C@@]2(CCCO2)C[C@@H]1N1CCCC1 | inactive: 1.09%
73 | CN(C)C(=O)c1cc([N+](=O)[O-])cc2c1-c1c(cc([N+](=O)[O-])cc1[N+](=O)[O-])C2=O | inactive: -20.2%
74 | O=[N+]([O-])c1ccc2c(c1)nnn2O | inactive: 3.92%
